The experiment addresses CDK2 (UniProt P24941). Description: Enzyme Assay.

The structures appear in SMILES notation. Where only a bound is given, the exact number is not on record here.

In the case of `Cc1cc(=O)n(C2CCCC2)c2nc(Nc3ccc(N4CCNCC4)cc3)ncc12`, the IC50 (as a rule, the concentration needed to halve the response being measured) is more than 5 µM.

For the origin of these results see the Kinase Knowledgebase extract (Sharma et al. 2016).
